Only a part is listed here, and it is no random draw. Inconclusive results are not listed. Where a call stands in place of a potency, no number is given. Active and inactive are the calls of the source. The call rests on the fitted dose curve; in most records, active means well fitted inhibition curve with a large enough effect; inconclusive means small, poorly fitted or top-dose-only effect, or effect the other way; inactive means flat fitted curve, though single readings scatter.
test: VP16 counterscreen qHTS for inhibitors of ROR gamma transcriptional activity; conditions: Drosophila S2 Gal4-VP16 UAS-luciferase, luminescence, 20 h; series mostly up to 53.6 µM;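 further: Gal4-VP16 expression switched on by copper sulfate through the metallothionein promoter; nearly all actives have a fitted effect of over 50% in size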
Potency means the concentration at half of the fitted maximal effect.

Compound | activity, negative = inhibition | Potency
Cc1cc(C)cc(OP(C)(=O)Nc2cccc(C(F)(F)F)c2)c1 (stereo not drawn) | inactive | 
COc1ccc(OP(C)(=O)Nc2ccccc2Br)cc1 (stereo not drawn) | inactive | 
COc1ccccc1OP(C)(=O)Nc1ccc(C)c(C)c1 (stereo not drawn) | inactive | 
CP(=O)(Nc1ccc(Cl)cc1Cl)Oc1ccccc1 (stereo not drawn) | inactive | 
CP(=O)(OCCOc1ccccc1)OCCOc1ccccc1 | inactive | 
COc1ccccc1OP(C)(=O)Nc1ccc(Br)cc1 (stereo not drawn) | inactive | 
CN(C)CCOC(=O)C(O)(c1ccccc1)C1CCCC1 (stereo not drawn) | inactive | 
COc1ccc(OP(C)(=O)Nc2ccccn2)cc1 (stereo not drawn) | inactive | 
Cc1c(NP(C)(=O)Oc2ccc(C(C)C)cc2)c(=O)n(-c2ccccc2)n1C (stereo not drawn) | inactive | 
CCc1ccc(OP(C)(=O)O)cc1 | inactive | 
COc1ccccc1OP(C)(=O)Nc1ccc(C)cc1C (stereo not drawn) | inactive | 
COc1ccc(OP(C)(=O)Nc2ccc(Br)cc2)cc1 (stereo not drawn) | inactive | 
CCN(CC)CC(O)COC(=O)C(O)(c1ccccc1)C1CCCCC1 (stereo not drawn) | inactive | 
CCc1ccc(OP(C)(=O)Nc2cccnc2)cc1 (stereo not drawn) | inactive | 
CP(=O)(Oc1ccccc1)N1CCOC1=O (stereo not drawn) | inactive | 
OCCSCCO | inactive | 
O=C(OCCCN1CCCC1)C(O)(c1ccccc1)C1CCCCC1 (stereo not drawn) | inactive | 
COc1ccccc1OP(C)(=O)Nc1c(C)n(C)n(-c2ccccc2)c1=O (stereo not drawn) | inactive | 
CP(=O)(Nc1ccc(Cl)cc1)Oc1ccc(F)cc1 (stereo not drawn) | inactive | 
COc1ccccc1OP(C)(=O)Nc1ccccc1Br (stereo not drawn) | inactive | 
CC(C)(C)c1ccc(OP(C)(=O)O)cc1 | inactive | 
CP(=O)(OC12CC3CC(CC(C3)C1)C2)OC12CC3CC(CC(C3)C1)C2 | inactive | 

Compound | activity, negative = inhibition | Potency
CCOC(=O)c1ccc(NP(C)(=O)Oc2ccc(Cl)cc2)cc1 (stereo not drawn) | inactive | 
CC(C)OP(=O)(F)OC(C)C | inactive | 
C/C1=C2N=C(/C=C3N=C(/C(C)=C4\[N-][C@@](C)([C@H]5N=C1[C@@](C)(CCC(=O)NC[C@H](C)OP(=O)([O-])O[C@@H]1[C@H](O)[C@H](n6cnc7cc(C)c(C)cc76)O[C@@H]1CO)[C@@H]5CC(N)=O)[C@](C)(CC(N)=O)[C@H]4CCC(N)=O)[C@@](C)(CC(N)=O)[C@@H]\3CCC(N)=O)C(C)(C)[C@@H]/2CCC(N)=O.[C-]#N.[Co+3] | inactive | 
COc1ccc(OP(C)(=O)Nc2cccc(Br)c2)cc1 (stereo not drawn) | inactive | 
COc1ccc(NP(C)(=O)Oc2ccccc2OC)cc1 (stereo not drawn) | inactive | 
CN(C)CCOC(=O)C(O)(c1ccccc1)C1CCCCC1 (stereo not drawn) | inactive | 
Cc1cc(-c2cccc3ccccc23)c(C)cn1.O=[N+]([O-])c1cc([N+](=O)[O-])c(O)c([N+](=O)[O-])c1 | inactive | 
Cc1ccc([N+](=O)[O-])c([N+](=O)[O-])c1 | inactive | 
Cc1c([N+](=O)[O-])cccc1[N+](=O)[O-] | inactive | 
O=[N+]([O-])c1ccc(OP2(=O)COCCO2)cc1 (stereo not drawn) | inactive | 
CP(=O)(Nc1ccc(SC(F)(F)F)cc1)Oc1ccc(F)cc1 (stereo not drawn) | inactive | 
CCOP(=O)(CC)OCC | inactive | 
CCOP(C)(=S)SCC(=O)NC(C)(CC)C(=O)O (stereo not drawn) | inactive | 
CP(=O)(Nc1ccc2c(c1)OCCO2)Oc1ccccc1 (stereo not drawn) | inactive | 
[NH4+].[O-][Cl+3]([O-])([O-])[O-] | inactive | 
CCN(CCCl)Cc1ccccc1C | inactive | 
CP(=O)(Nc1ccccc1F)Oc1ccccc1 (stereo not drawn) | inactive | 
O=C(OCCN1CCN(CCOCc2ccccc2)CC1)C(O)(c1ccccc1)c1ccccc1 | inactive | 
Cc1cccc([N+](=O)[O-])c1[N+](=O)[O-] | inactive | 
CCC(C)(OO)OOC(C)(CC)OO (stereo not drawn) | inactive | 
COc1ccc(OP(C)(=O)Nc2ccc(SC(F)(F)F)cc2)cc1 (stereo not drawn) | inactive | 
CCOC(=O)c1ccc(NP(C)(=O)Oc2ccc(F)cc2)cc1 (stereo not drawn) | inactive | 

Compound | activity, negative = inhibition | Potency
CCN(CC)CCCOC(=O)C(O)(c1ccccc1)C1CCCCC1 (stereo not drawn) | inactive | 
CP(=O)(Nc1ccccc1)Oc1ccc(F)cc1 (stereo not drawn) | inactive | 
O=[N+]([O-])c1cccc([N+](=O)[O-])c1 | inactive | 
Cc1ccc([N+](=O)[O-])cc1[N+](=O)[O-] | inactive | 
O=[N+]([O-])OCC(CO[N+](=O)[O-])(CO[N+](=O)[O-])CO[N+](=O)[O-] | inactive | 
CC1=NCCc2c1[nH]c1ccccc21.O=[N+]([O-])c1cc([N+](=O)[O-])c(O)c([N+](=O)[O-])c1 | inactive | 
COc1ccccc1OP(C)(=O)Nc1cccc(Br)c1 (stereo not drawn) | inactive | 
Cc1cc(C)cc(OP(C)(=O)Nc2ccc(C)cc2C)c1 (stereo not drawn) | inactive | 
CCOC(=O)c1ccc(NP(C)(=O)Oc2cc(C)cc(C)c2)cc1 (stereo not drawn) | inactive | 
Cc1cc(C)cc(OP(C)(=O)Nc2ccccn2)c1 (stereo not drawn) | inactive | 
CP(=O)(Nc1cccc(Br)c1)Oc1ccccc1 (stereo not drawn) | inactive | 
Cc1ccc(C)c(NP(C)(=O)Oc2ccccc2)c1 (stereo not drawn) | inactive | 
O=[N+]([O-])c1cc([N+](=O)[O-])c(-n2nnc3ccccc32)c([N+](=O)[O-])c1 | inactive | 
CC(C)N(CCCl)C(C)C | inactive | 
Cc1nc2ccc3ccccc3c2s1.O=[N+]([O-])c1cc([N+](=O)[O-])c(O)c([N+](=O)[O-])c1 | inactive | 
O=[N+]([O-])c1cc([N+](=O)[O-])c(Nc2nnnn2CCO)c([N+](=O)[O-])c1 | inactive | 
COc1ccccc1OP(C)(=O)Nc1c(C)cccc1C (stereo not drawn) | inactive | 
CN1CCCCC1COC(=O)C1(O)c2ccccc2CCc2ccccc21 (stereo not drawn) | inactive | 
CCCOc1ccc(NP(C)(=O)Oc2ccc(Cl)cc2)cc1 (stereo not drawn) | inactive | 
CP(=O)(Nc1ccc(SC(F)(F)F)cc1)Oc1ccccc1 (stereo not drawn) | inactive | 
CP(=S)(Nn1cnnc1)Oc1ccccc1 (stereo not drawn) | inactive | 
COc1ccccc1OP(C)(=O)Nc1ccccc1 (stereo not drawn) | inactive: -2.07% [at 10 µM] | 

Compound | activity, negative = inhibition | Potency
CP(=O)(Nc1ccccc1Br)Oc1ccccc1 (stereo not drawn) | inactive | 
CP(=O)(Oc1ccccc1)OC(c1ccccc1)C(F)(F)F (stereo not drawn) | inactive | 
Cc1cccc(C)c1OP(C)(=O)Nc1ccc(SC(F)(F)F)cc1 (stereo not drawn) |  | active: 22.4 µM
CP(=O)(Nc1ccc(SC(F)(F)F)cc1)Oc1ccc(Cl)cc1 (stereo not drawn) | inactive | 
CP(=O)(NC(=O)Nc1ccccc1)Oc1ccccc1 (stereo not drawn) | inactive | 
CCc1ccc(OP(C)(=O)N2CCN(c3ccc([N+](=O)[O-])cc3)CC2)cc1 (stereo not drawn) | inactive | 
CCOP(C)(=S)SCC(=O)NC(C)C(=O)O (stereo not drawn) | inactive | 
CN(C)CCS | inactive | 
CCOC(=O)c1ccc(NP(C)(=O)Oc2ccc(OC)cc2)cc1 (stereo not drawn) | inactive | 
CP(=O)(Nc1ccccn1)Oc1ccc(Cl)cc1 (stereo not drawn) | inactive | 
CCN(CC)CCCOC(=O)C(O)(c1ccccc1)c1ccccc1 | inactive | 
O=[N+]([O-])[O-].[NH4+] | inactive | 
O=C(O)C1(O)c2ccccc2-c2ccccc21 | inactive | 
Cc1cccc(C)c1OP(C)(N)=O (stereo not drawn) | inactive | 
O=C(O)C(O)(c1ccccc1)c1ccccc1 | inactive | 
O=[N+]([O-])c1ccc2c(c1)C=Nc1ccccc1O2 | inactive | 
CCOC(=O)c1ccc(NP(C)(=O)Oc2ccccc2)cc1 (stereo not drawn) | inactive | 
Cc1ccc(NP(C)(=O)Oc2ccccc2)c(C)c1 (stereo not drawn) | inactive | 
COc1ccccc1OP(C)(=O)Nc1ccc(C)cc1 (stereo not drawn) | inactive | 
COc1ccc(OP(C)(=O)Nc2cccc(F)c2)cc1 (stereo not drawn) | inactive | 
COc1ccccc1OP(C)(=O)Nc1cc(Cl)ccc1C (stereo not drawn) | inactive | 
Cc1cc(C)cc(OP(C)(N)=O)c1 (stereo not drawn) | inactive | 

Source: PubChem BioAssay AID2546 (National Center for Advancing Translational Sciences (NCATS), 2010)
